The series has as its system PXR. Conditions: human primary liver cells, 0-10 μM rifampicin.

Molecules are shown by their SMILES.

For `CO[C@H]1/C=C/O[C@@]2(C)Oc3c(C)c(O)c4c(O)c(c(/C=N/N5CCN(C)CC5)c(O)c4c3C2=O)NC(=O)/C(C)=C\C=C\[C@H](C)[C@H](O)[C@@H](C)[C@@H](O)[C@@H](C)[C@H](OC(C)=O)[C@@H]1C` [rifampicin], under “qNPA”, the PXR transcript level result was “suppressed”. Besides, the “suppression of PXR” value (qNPA (Panel a of FIG. 27)) was “less than 50%”.

For the origin of these results see patent publication US20080268451A1, “MEASUREMENT OF AN INSOLUBLE ANALYTE IN A SAMPLE” (priority 2007, published 2008).
